Amino acid sequences for entries named in this document (tags omitted).
UniProt P41146, whole entry: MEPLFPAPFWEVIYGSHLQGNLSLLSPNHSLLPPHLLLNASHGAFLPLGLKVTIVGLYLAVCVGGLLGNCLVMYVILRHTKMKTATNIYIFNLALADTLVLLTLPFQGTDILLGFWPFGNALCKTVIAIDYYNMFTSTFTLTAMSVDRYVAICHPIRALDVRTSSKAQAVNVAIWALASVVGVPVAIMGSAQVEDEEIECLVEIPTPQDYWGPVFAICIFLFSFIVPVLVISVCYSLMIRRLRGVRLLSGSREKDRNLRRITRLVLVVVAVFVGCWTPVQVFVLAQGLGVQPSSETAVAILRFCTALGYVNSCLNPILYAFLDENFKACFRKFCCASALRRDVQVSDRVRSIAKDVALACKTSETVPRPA

In ChEMBL document CHEMBL4371007, “Biased Ligands of G Protein-Coupled Receptors (GPCRs): Structure-Functional Selectivity Relationships (SFSRs) and Therapeutic Potential” (J Med Chem, 2018):

Columns and labels:
[1] = target: Nociceptin receptor (Homo sapiens) (UniProt P41146); experiment: Agonist activity at YFP-fused human NOPR expressed in HEK293 cells assessed as inhibition of forskolin-mediated cAMP accumulation measured immediately by luminescence assay relative to control
[2] = target: Nociceptin receptor (Homo sapiens) (UniProt P41146); experiment: Agonist activity at YFP-fused human NOPR expressed in HEK293 cells assessed as increase in beta-arrestin-2 recruitment measured for 1 secs every min for 2 mins by BRET assay relative to control
[3] = target: Nociceptin receptor (Homo sapiens) (UniProt P41146); experiment: Agonist activity at YFP-fused human NOPR expressed in HEK293 cells assessed as increase in beta-arrestin-1 recruitment measured for 1 secs every min for 2 mins by BRET assay relative to control

| Compound | Emax [1] [%] | Emax [2] [%] | Emax [3] [%] |
| --- | --- | --- | --- |
| CCn1c(=O)n([C@@H]2CCN(C3CCC(C(C)C)CC3)C[C@H]2CO)c2ccccc21 (some centres undefined) | 77 | 24 | 31 |
| CCn1c(=O)n([C@@H]2CCN(CC3CCCCCCC3)C[C@H]2CO)c2ccccc21 | -10 | 5.1 | 19 |
| CCn1c(=O)n([C@@H]2CCN(CC3CCCC4CCCCC43)C[C@H]2CO)c2ccccc21 (some centres undefined) | 74 | 14 | 28 |
